From PubChem BioAssay AID588501 (NMMLSC, 2011)
Only a part is listed here, and it is no random draw. Some results for these compounds are left out of this collection, so the calls shown say nothing about other tests. Active and inactive are the calls of the source. No stated cut-off is given here; in the data, active means inhibition above about 30%; inconclusive means no clear call, values can overlap the other calls; inactive means below that.

Each compound was assayed against Lethal factor (Bacillus anthracis) (UniProt P15917) (assay: Bacillus anthracis LF protease inhibitors, primary screen, biochemical, multiplex microsphere, MLPCN library (AID 588501; further: plate controls were buffer without enzyme for full effect and enzyme alone for no effect)). Settings: multiplex microsphere protease cleavage assay, at 10 µM, hits give high values.

Row | Compound | inhibition
1 | C=C(C)C#CC(O)(C(=O)OC1CCN(C)CC1)c1ccccc1 (stereo unspecified) | inactive: 2%
2 | COc1ccc(Br)c(C(=O)NCC2(N3CCCCC3)CCCCC2)c1 | inactive: 2.8%
3 | CC(C)Oc1ccc(C(=O)NCC2(N(C)C)CCCCC2)cc1 | inactive: 4.8%
4 | O=C(OCCN1CCCC1)C(O)(c1ccccc1)c1ccccc1 | inactive: 0.5%
5 | CN(C)c1cccc(C(=O)NCC2(N(C)C)CCCCC2)c1 | inactive: -0.1%
6 | O=C(OC1CN2CCC1CC2)C(CO)(c1ccccc1)c1ccccc1 (stereo unspecified) | inactive: -1.6%
7 | COc1cccc(C(=O)NCC2(N3CCCCC3)CCCCC2)c1 | inactive: 1.6%
8 | COc1ccc(Cl)cc1C(=O)NCC1(N(C)C)CCCCC1 | inactive: -1.3%
9 | O=C(NCC1(N2CCCCC2)CCCCC1)c1cccc(Cl)c1 | inactive: 10%
10 | CN(C)C1(CNC(=O)c2ccc(Br)cc2)CCCCC1 | inactive: 4.8%
11 | COc1cc(C(=O)NCC2(N(C)C)CCCCC2)c([N+](=O)[O-])cc1OC | inactive: -11.5%
12 | C=CCN1CCN(CCOC(=O)C(O)(c2ccccc2)c2ccccc2)CC1 | inactive: -7.8%
13 | O=C(NCC1(N2CCCCC2)CCCCC1)c1cc(F)c(F)cc1Cl | inactive: -1.2%
14 | COc1ccc(C(=O)NCC2(N(C)C)CCCCC2)cc1 | inactive: 6.6%
15 | CCN1CCCC(OC(=O)C2(O)c3ccccc3C=Cc3ccccc32)C1 (stereo unspecified) | inactive: 0.6%
16 | Cc1cc(C(=O)NCC2(N3CCCCC3)CCCCC2)ccc1[N+](=O)[O-] | inactive: -7.5%
17 | O=C(NCC1(N2CCCCC2)CCCCC1)c1cccc(Br)c1 | inactive: 2.5%
18 | Cc1ccccc1C(=O)NCC1(N2CCCCC2)CCCCC1 | inactive: -2.4%
19 | CN(C)c1ccc(C(=O)NCC2(N(C)C)CCCCC2)cc1 | inactive: -6.4%
20 | CN(C)C1CCCC1OC(=O)C(O)(c1ccccc1)c1ccccc1 (stereo unspecified) | inactive: -1.4%
21 | CCN(CC)CC(C)C(C)OC(=O)C(O)(c1ccccc1)c1ccccc1 (stereo unspecified) | inactive: -0.2%
22 | COc1cc(SC)ccc1C(=O)NCC1(N(C)C)CCCCC1 | inactive: 7.7%
23 | CC(C)N1C(=O)CC2(CCN(CCOC(=O)C(O)(c3ccccc3)c3ccccc3)CC2)C1=O | inactive: 6.2%
24 | Cc1ccc(C(=O)NCC2(N3CCCCC3)CCCCC2)cc1 | inactive: 3%
25 | O=C(NCC1(N2CCCCC2)CCCCC1)c1cc([N+](=O)[O-])ccc1Cl | inactive: -4.7%
26 | CN1[C@@H]2CC[C@H]1CC(OC(=O)C(O)(c1ccccc1)c1ccccc1)C2 (stereo partly specified) | inactive: -8.2%
